Results: PubChem BioAssay AID1053197 (The Scripps Research Institute Molecular Screening Center, 2014)
The entries are a selection whose mix differs from that of the whole data set. Activity calls are given as the source filed them.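 The calls were made as follows: active = inhibition above a cutoff: mean of compounds within the control limits plus 3 SD of those (cut at about 17% in these data); inactive = the rest.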

The chains behind the UniProt entries cited, without tags or fusion partners. Where a name states a change or a piece, a line headed by the entry shows the natural chain unless it says otherwise.
UniProt Q9HAT2: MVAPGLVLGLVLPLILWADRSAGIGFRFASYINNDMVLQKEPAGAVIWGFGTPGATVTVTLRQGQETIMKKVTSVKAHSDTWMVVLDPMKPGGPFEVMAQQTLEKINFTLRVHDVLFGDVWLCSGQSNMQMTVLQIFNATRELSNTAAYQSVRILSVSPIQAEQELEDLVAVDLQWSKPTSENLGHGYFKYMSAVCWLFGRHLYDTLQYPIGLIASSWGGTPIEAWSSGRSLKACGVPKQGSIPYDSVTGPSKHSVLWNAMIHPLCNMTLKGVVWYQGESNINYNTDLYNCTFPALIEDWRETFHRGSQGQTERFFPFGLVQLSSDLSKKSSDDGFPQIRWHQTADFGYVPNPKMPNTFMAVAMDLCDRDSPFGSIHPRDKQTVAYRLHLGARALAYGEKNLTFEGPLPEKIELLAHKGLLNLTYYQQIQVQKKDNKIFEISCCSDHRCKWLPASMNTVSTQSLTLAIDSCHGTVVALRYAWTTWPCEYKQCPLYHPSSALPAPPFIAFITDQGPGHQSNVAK

The compounds below were run against Sialate O-acetylesterase (Homo sapiens) (UniProt Q9HAT2) (assay: human SIAE inhibitors, primary screen, biochemical, fluorescence polarization, FP-Rh probe, 1536-well HTS (AID 1053197;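 also: 0% = plate median of compound wells and 100% = probe without SIAE protein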)). Details: SIAE FP-Rh probe binding, at 9.66 µM, hits give high values.

Row | Structure (SMILES) | inhibition
1 | CCOC(=O)c1ccc(NC(=O)C(C)(CCl)SC)cc1 (stereo not given) | inactive: 6.88%
2 | O=C(OC1CN2CCC1CC2)c1cccc([N+](=O)[O-])c1 (stereo not given) | inactive: -5.94%
3 | COc1cc(I)ccc1[As](=O)(O)O | inactive: -1.72%
4 | COc1ccc2nc(NP(=O)(c3ccccc3)c3ccccc3)sc2c1 | inactive: 7.88%
5 | O=P1(N(CCCl)CCCl)Nc2ccccc2N1 | inactive: 6.76%
6 | O=P1(N(CCCl)CCCl)OCCCN1CCCl (stereo not given) | inactive: 1.77%
7 | Cc1cc(=O)[nH]c(N[N+](=O)[O-])n1 | inactive: 0.04%
8 | O=C(OC1CN2CCC1CC2)C12CC3CC(CC(C3)C1)C2 (stereo not given) | inactive: -1.52%
9 | Cc1c2c(nc3ccccc13)SC(C(Cl)Cl)C2 (stereo not given) | inactive: 1.54%
10 | COc1ccc(N/C(=N/P(=O)(N2CCOCC2)N2CCOCC2)N2CCOCC2)cc1 | inactive: 5.47%
11 | O=[N+]([O-])c1cc(Oc2ccc([N+](=O)[O-])cc2C(F)(F)F)cc([N+](=O)[O-])c1 | inactive: -1.01%
12 | Cc1ccc2nc3c(c(C)c2c1)CC(C(Cl)Cl)S3 (stereo not given) | inactive: -5.96%
13 | Cc1ccc(OP(=O)(Nc2ccc([N+](=O)[O-])cn2)Oc2ccc(C)cc2)cc1 | inactive: 0.43%
14 | [N-]=[N+]=NC1CCCCC1NC(=O)c1cc([N+](=O)[O-])cc([N+](=O)[O-])c1 (stereo not given) | inactive: 0.35%
15 | O=[N+]([O-])c1ccc(-c2cc([N+](=O)[O-])c(O)c([N+](=O)[O-])c2)cc1 | inactive: -2.88%
16 | COc1cc(C(=O)NCC2(N3CCOCC3)CCCCC2)ccc1OCC(C)C | inactive: -3.7%
17 | C[As](=O)(O)c1cccc(C(=O)O)c1 | inactive: 0%
18 | O=[As](O)(c1ccc(O)cc1)c1ccccc1O | inactive: 0.42%
19 | CC(C)NC(=O)NP(=O)(Oc1ccccc1)Oc1ccccc1 | inactive: 4.44%
20 | CCN(CC)C(=S)SC(NC=O)C(Cl)(Cl)Cl (stereo not given) | inactive: -0.4%
21 | O=C(OC1CN2CCC1CC2)c1cccc2[nH]cnc12 (stereo not given) | inactive: -9.53%
22 | COC(=O)C1(C)COP(=O)(N2CCCCCC2)OC1 (stereo not given) | inactive: -2.58%

Row | Structure (SMILES) | inhibition
23 | CC(C)c1ccc(OP(=O)(Nc2ccccn2)Oc2ccccc2F)cc1 (stereo not given) | inactive: -6.31%
24 | ClCCSc1nnc(-c2cccnc2)o1 | inactive: -2.13%
25 | CN(C(=O)Cc1ccc(Cl)c(Cl)c1)[C@H]1CCCC[C@@H]1N1CCCC1 | inactive: -7.33%
26 | Cc1ccc(NP(=O)(Oc2ccccc2F)Oc2ccccc2F)nc1 | inactive: 2.25%
27 | Cc1cc(SC(NC(=O)c2ccc(F)cc2)C(Cl)(Cl)Cl)ncn1 (stereo not given) | inactive: 5.45%
28 | CCOP(=O)(Nc1ccccc1)OCC | inactive: 1.25%
29 | CCn1c(=O)n(C2CCN(CC3CCCCCCC3)C[C@H]2CO)c2ccccc21 (stereo not given in full) | inactive: -2.4%
30 | CCCC1OP(N)(=O)OCC1CC (stereo not given) | inactive: 1.34%
31 | CC(=O)Nc1ccc([As](=O)(O)O)cc1 | inactive: -3.9%
32 | O=C(O)c1ccccc1[As](=O)(O)O | inactive: -2.49%
33 | O=P(Nc1nc2ccc(Cl)cc2s1)(c1ccccc1)c1ccccc1 | inactive: -4.03%
34 | CN(C)P(=O)(N(C)C)n1c(Nc2ccccc2)nnc1-c1ccccc1 | inactive: 0.32%
35 | CCN(N=Nc1nonc1N)c1nonc1N | inactive: -0.53%
36 | CN(C(=O)Cc1ccccc1)C1CC[C@@]2(CCCO2)C[C@@H]1N1CCCC1 (stereo not given in full) | inactive: 1.61%
37 | Nc1cccc2ccc([As](=O)(O)O)cc12 | active: 19.3%
38 | Cc1ccc(OP(=O)(Nc2nccs2)Oc2ccc(C)cc2)cc1 | inactive: -1.24%
39 | COc1ccccc1OP(=O)(Nc1ccc(C)cn1)Oc1ccccc1OC | inactive: 1.26%
40 | CN1CCCC(OC(=O)C(c2ccccc2)c2ccccc2)C1 (stereo not given) | inactive: -0.17%
41 | Clc1ccc(Cl)c(NC2=NCC(CBr)S2)c1 (stereo not given) | inactive: 0.92%
42 | NC(=O)c1cc([N+](=O)[O-])cc([N+](=O)[O-])c1N | inactive: 0.44%
43 | Cc1ccc(N/C(=N/P(=O)(N2CCOCC2)N2CCOCC2)N2CCOCC2)cc1 | inactive: 3.3%
44 | CN(C(=O)Cc1ccc(Cl)c(Cl)c1)[C@H]1CCCC[C@H]1N1CCCC1 | inactive: -2.78%

Row | Structure (SMILES) | inhibition
45 | Nc1cc(N)c2nonc2c1[N+](=O)[O-] | inactive: -3.57%
46 | CC(C)CC(=O)NC(Sc1ccc(Cl)cc1)C(Cl)(Cl)Cl (stereo not given) | inactive: -1.1%
47 | O=C(NC(Sc1ccncn1)C(Cl)(Cl)Cl)c1ccccc1 (stereo not given) | inactive: 5.29%
48 | Oc1ccccc1CNc1ccccn1 | inactive: 0.89%
49 | CC(=O)N1C2C3N(C(C)=O)C1C1N(C(C)=O)C(C(N1C(C)=O)N3C(C)=O)N2C(C)=O | inactive: 2.4%
50 | O=[N+]([O-])c1cccc2n[nH]nc12 | inactive: 2.01%
51 | O=[N+]([O-])c1cc([N+](=O)[O-])c(CCNc2ccccc2)c([N+](=O)[O-])c1 | active: 39.6%
52 | CCc1nc2c(n1)c1c(non1O)c1c2no[n+]1[O-] | inactive: -1.24%
53 | Cc1ccc(NP(=O)(Oc2ccccc2)Oc2ccccc2)nc1 | inactive: -7.11%
54 | COc1ccc(C2=NCC(CBr)S2)cc1 (stereo not given) | inactive: 1.71%
55 | CN(C)C(=O)OCCc1n(C)cc[n+]1C | inactive: -8.53%
56 | CC(C)c1nc(Nc2ccccc2)n(P(=O)(N(C)C)N(C)C)n1 | inactive: -1.52%
57 | CC(C)=N/N=C(\N)N[N+](=O)[O-] | inactive: 4.88%
58 | CC1CCN(C(=O)Oc2c(Cl)cc(Cl)c3cccnc23)CC1 | inactive: -0.39%
59 | c1cc(-c2nn[nH]n2)ccc1-c1nn[nH]n1 | inactive: -3.84%
60 | C[N+]1=C2C=CC=CC=C2SC12C([N+](=O)[O-])=CC([N+](=O)[O-])=C[C-]2[N+](=O)[O-] (stereo not given) | active: 20.9%
61 | Nc1ccc([As](=O)(O)c2ccc(N)cc2)cc1 | inactive: 9.91%
62 | CCN(/C(=N/P(=O)(N1CCOCC1)N1CCOCC1)N1CCOCC1)c1ccc(OC)cc1 | inactive: 1.99%
63 | O=C(Nc1cc([As](=O)(O)O)ccc1O)c1ccccc1 | inactive: 5.55%
64 | O=P1(N(CCCl)CCCl)OCCCS1 (stereo not given) | inactive: 0.98%
65 | COC(=O)C1(C)COP(=O)(Nc2ccccc2)OC1 (stereo not given) | inactive: -1.67%
